Consider one compound from patent US11690825B2, “20-HETE receptor (GPR75) antagonists and methods of use” (BOARD OF REGENTS, THE UNIVERSITY OF TEXAS SYSTEM, priority 2016, dated 2023).

Amino acid sequences for entries named in this document (tags omitted).
UniProt O95800, whole entry: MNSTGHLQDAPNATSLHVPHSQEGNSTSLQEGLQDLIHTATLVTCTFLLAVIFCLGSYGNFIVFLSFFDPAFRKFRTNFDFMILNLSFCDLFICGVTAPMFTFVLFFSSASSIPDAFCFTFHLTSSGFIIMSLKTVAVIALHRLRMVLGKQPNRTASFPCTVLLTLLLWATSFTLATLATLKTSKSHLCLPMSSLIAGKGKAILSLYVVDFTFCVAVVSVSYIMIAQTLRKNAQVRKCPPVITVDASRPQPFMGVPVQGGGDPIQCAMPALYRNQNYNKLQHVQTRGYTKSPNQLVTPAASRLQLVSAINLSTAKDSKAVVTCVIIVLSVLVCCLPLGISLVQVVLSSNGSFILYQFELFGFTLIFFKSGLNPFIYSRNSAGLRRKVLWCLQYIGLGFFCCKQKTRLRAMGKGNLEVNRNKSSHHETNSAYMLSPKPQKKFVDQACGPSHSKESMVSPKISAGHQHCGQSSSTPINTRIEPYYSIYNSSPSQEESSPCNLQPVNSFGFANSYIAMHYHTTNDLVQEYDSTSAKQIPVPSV

Experiment [1] deals with T1, GPR75 (Homo sapiens, UniProt O95800). In words: β-arrestin GPCR recruitment assay, GPR75 expressed in CHO cells. In kind it is cell-based. Conditions: estimated, read-out: EC50 for activation of GPR75. Also noted: expressed in transfected cells; host or cells: CHO cells. The source says:
(§1) β-arrestin represents a robust and widely used screening technology for GPCR-ligand pairing. GPCR-mediated β-arrestin recruitment is also recognized as a distinct intracellular signaling pathway, and ligand-receptor interactions may show a bias toward β-arrestin over classical GPCR signaling pathways.

The target of experiment [2] is membrane fractions from EC (Homo sapiens, UniProt O95800). Conditions: displacement of [3H8] 20-HETE.
Source text: as §1

The target in experiment [3] is T1, GPR75. In words: GPR75 immunoprecipitation in EC (HMVEC). In kind it is cell-based. More on the design: endogenous in cells; host or cells: HMVEC (human microvascular endothelial cells); EA.hy926 lysate is also mentioned. The method, then: Immunoprecipitation of GPR75 in EC further indicated its association with Gαq/11, GIT1 and HIC-5 (FIG. 11a). Incubation of EC with 20-HETE at 10 nM for 5 min increased GPR75-GIT1 association by 2-fold and GPR75-HIC-5 dissociation by 60% (FIGS. 11c and d). No change in GPR75-Gαq/11 association was detected in EC (FIG. 11b).
Immunoprecipitation. […] Western Blot Analysis.

Usually EC50 stands for the concentration giving half of the maximal effect. As a reminder, the Kd is the free concentration of one partner at which half of the binding sites on the other are occupied at equilibrium, for simple one-to-one binding. Read a high Kd as lower affinity. For `O=C(O)CCC/C=C\C/C=C\C/C=C\C/C=C\CCCCCO` [Analog 20-HETE, 20-hydroxyeicosa-5(Z),8(Z),11(Z),14(Z)-tetraenoic acid], the concentration giving a half-maximal response (EC50) in experiment [1] was 19.7 µM. Besides, binding in experiment [2] was characterised by a dissociation constant (Kd) of 0.00375 µM. Besides, in experiment [3] (EC), the GPR75-Gαq/11 association entry was “No change”. Moreover, the fold induction at 0.01 µM in experiment [3] (HMVEC, 5 min, read-out: increase of GPR75-GIT1 association) was 2.
